Assay results as given in ChEMBL document CHEMBL1132988.

By UniProt entry, the sequences of proteins in these tests, tags left out. Where a name states a change or a piece, a line headed by the entry shows the natural chain unless it says otherwise.
UniProt P34975: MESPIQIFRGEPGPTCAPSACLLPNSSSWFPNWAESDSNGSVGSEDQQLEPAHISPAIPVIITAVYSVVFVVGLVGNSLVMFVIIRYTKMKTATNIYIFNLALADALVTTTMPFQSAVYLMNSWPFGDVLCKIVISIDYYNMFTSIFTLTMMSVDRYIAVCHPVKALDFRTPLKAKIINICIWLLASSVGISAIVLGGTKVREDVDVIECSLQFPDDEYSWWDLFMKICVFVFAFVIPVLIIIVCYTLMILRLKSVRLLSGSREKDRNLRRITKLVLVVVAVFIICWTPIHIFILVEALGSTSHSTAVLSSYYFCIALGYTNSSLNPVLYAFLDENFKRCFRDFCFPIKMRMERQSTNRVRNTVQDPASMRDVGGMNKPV

Biological target: Kappa-type opioid receptor (Rattus norvegicus, UniProt P34975)
Assay: Dissociation constant against wild type EL-2 Opioid receptor kappa 1 expressed in HEK cells
Details: hek293

CO[C@]12CC[C@@]3(C[C@@H]1C(C)(C)O)[C@H]1Cc4ccc(O)c5c4[C@@]3(CCN1CC1CC1)[C@H]2O5
Kd: 0.029 nM
